Source: PubChem BioAssay (Broad Institute)
Yeast UUG start-1: yeast start codon fidelity modulation; actives 0.13% (n = 350,000); activity score, % at 18.7 µM; S. cerevisiae UUG-firefly luciferase reporter, luminescence/redox ratio;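 active = replicate mean at a twofold rise or more, about +100% in these data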;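 note: firefly luciferase made from a UUG start codon reports start codon fidelity; reporter light over untreated wells divided by growth signal over untreated wells; some hits fall short of that in this replicate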
ERp5 inh: inhibitors of human ERp5; ERp5 insulin aggregation, absorbance 650 nm, 90 min; inhibition, % at 9.99 µM; 350,000 compounds, 0.05% hits; AID 651711;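 active = mean replicate inhibition above about 25%, with every replicate also reaching it, limit read from the data, passing the limit was not always enough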
PDI inh: PDI (human) enzyme inhibition; AID 588391; 350,000 compounds, 0.052% hits; PDI insulin aggregation turbidity, A650, 90 min; P07237; inhibition, % at 10 µM;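 active = mean inhibition across replicates of 30% or more, whatever share of single replicates reach that level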
Cneo AK release: causes C. neoformans cell lysis; 360,000 compounds, 0.2% hits; adenylate kinase release luminescence, 4 h; normalised: neutral wells 0, clomiphene wells 100; lysis activity, % at 15 µM;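 active = mean lysis activity across replicates of at least 80%, whatever share of replicates individually reach that level; inactive = mean lysis activity below 80%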
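Material – Cryptococcus neoformans yeast cells · Quantity – 5 × 10^6 yeast cells/mL · Buffer or medium – YPD medium · Compound – single dose · Timing – 4 h static compound exposure, 37 °C, read 1 h post-reagent · Signal – adenylate kinase release luminescence · Read-out basis – lysis from increased AK signal · Benchmarks – Clomiphene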
Yeast UUG start-2: modulators of start codon recognition fidelity in yeast | shares compounds with Yeast UUG start-1 | activation, % at 38 µM | 540 tested, under 10 active | S. cerevisiae UUG-start firefly luciferase, luminescence, 4 h; 100% means double the DMSO signal;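 active = signal increase whose fitted curve reaches an absolute level of 40 at a concentration under 10 µM; inactive = activity opposite to the expected increase, or the rest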
Numbers without * were called inactive; i = inactive; . = no result given. Rows were chosen to be rich in hits. Some 0.34% of all compounds tested hit in one or more screens of this group.

cpd	compound	Cneo AK release	Yeast UUG start-2	ERp5 inh
1	COCCNC(=O)C[C@@H]1CC[C@@H](NS(=O)(=O)c2ccc(C)cc2)[C@H](CO)O1	2	.	0
2	Cc1ccc(S(=O)(=O)N(C)C[C@@H]2OCCCC[C@H](C)Oc3ccc(NC(=O)c4ccccc4)cc3C(=O)N([C@H](C)CO)C[C@@H]2C)cc1	6	.	-1
3	CCC(=O)N[C@@H]1C=C[C@@H](CC(=O)NCc2ccc(OC)cc2)O[C@@H]1CO	0	.	4
4	COc1ccc(NC(=O)Nc2ccc3c(c2)[C@H]2C[C@H](CC(=O)NCC4CC4)O[C@H](CO)[C@H]2O3)cc1	-7	.	7
5	O=C(Nc1ccc(C(F)(F)F)cc1)Nc1ccc2c(c1)[C@H]1C[C@H](CC(=O)N3CCc4ccccc4C3)O[C@@H](CO)[C@H]1O2	0	.	3
6	O=C(C[C@@H]1C[C@H]2c3cc(NC(=O)NC4CCCCC4)ccc3O[C@H]2[C@H](CO)O1)NCc1ccccn1	41	i	4
7	COC(=O)C[C@@H]1C[C@H]2c3cc(NC(=O)CC4CC4)ccc3O[C@H]2[C@@H](CO)O1	4	.	8
8	COc1ccc(NC(=O)Nc2ccc3c(c2)[C@@H]2C[C@@H](CC(=O)NCC4CC4)O[C@@H](CO)[C@@H]2O3)cc1	-4	i	12
9	O=C(Nc1ccc2c(c1)[C@@H]1C[C@@H](CC(=O)N3CCc4ccccc4C3)O[C@@H](CO)[C@@H]1O2)Nc1ccccc1F	-2	i	-1
10	COC(=O)C[C@H]1C[C@@H]2c3cc(NC(=O)CC4CC4)ccc3O[C@@H]2[C@@H](CO)O1	-6	i	-1
11	C[C@H](CO)N1C[C@H](C)[C@H](CN(C)Cc2ccncc2)Oc2ncc(C#CCN(C)C)cc2C1=O	-1	.	-5
12	CC(C)NC(=O)Nc1ccc2c(c1)C(=O)N([C@H](C)CO)C[C@H](C)[C@@H](CN(C)C(=O)c1ccncc1)OCCCC[C@H](C)O2	1	.	-2
13	C[C@H](CO)N1C[C@H](C)[C@H](CN(C)C(=O)Nc2ccc(C(F)(F)F)cc2)Oc2ccc(NS(C)(=O)=O)cc2C1=O	3	.	4
14	C[C@@H]1CN([C@@H](C)CO)C(=O)c2cc(NC(=O)c3ccccc3)ccc2O[C@@H](C)CCCCO[C@@H]1CN(C)C(=O)c1ccccc1	2	.	2
15	O=C(O)C[C@H]1C[C@H]2c3cc(NC(=O)c4ccc5c(c4)OCO5)ccc3O[C@H]2[C@@H](CO)O1	-2	i	-5

cpd	PDI inh	Yeast UUG start-1
1	.	-9
2	.	11
3	.	-13
4	.	-2
5	.	.
6	.	75*
7	3	-15
8	.	57*
9	.	61*
10	.	119*
11	.	-20
12	.	.
13	.	-1
14	.	.
15	.	39*

Quoted at random: 2 compounds from above
cpd	compound	Cneo AK release	Yeast UUG start-2	ERp5 inh
6	O=C(C[C@@H]1C[C@H]2c3cc(NC(=O)NC4CCCCC4)ccc3O[C@H]2[C@H](CO)O1)NCc1ccccn1	41	i	4
13	C[C@H](CO)N1C[C@H](C)[C@H](CN(C)C(=O)Nc2ccc(C(F)(F)F)cc2)Oc2ccc(NS(C)(=O)=O)cc2C1=O	3	.	4

cpd	PDI inh	Yeast UUG start-1
6	.	75*
13	.	-1

Other results.
cpd	compound	Cneo AK release	Yeast UUG start-2	ERp5 inh
16	CCCc1cn(CC[C@@H]2CC[C@@H](NS(=O)(=O)c3ccccc3Cl)[C@H](CO)O2)nn1	1	.	-3
17	Cc1cc(C(=O)CSc2nnc3ccccn23)c(C)n1-c1ccccc1	.	.	.
18	Cc1cc(C(=O)CSc2nnc(-c3ccccc3)n2-c2ccccc2)c(C)n1-c1ncn[nH]1	-2	11	.
19	COCC(C)n1c(SCC(=O)c2cc(C)n(C)c2C)nc2ccccc2c1=O (stereo unspecified)	1	-1	5
20	C=CCn1c(SCC(=O)c2cc(C)n(C)c2C)nnc1-c1ccncc1	2	.	-11
21	Cn1c(SCC(=O)c2ccccc2)nnc1-c1cccnc1	-1	.	.
22	COCC(C)n1c(C)cc(C(=O)CSc2nc3ccccc3c(=O)[nH]2)c1C (stereo unspecified)	-1	.	.
23	Cc1cc(C(=O)CSc2nnc(-c3ccncc3)n2-c2ccccc2)c(C)n1C	.	7	.
24	Cc1cc(C(=O)CSc2nnc(-c3cccnc3)n2-c2ccccc2F)c(C)n1C	-3	9	.
25	C[C@H](CO)N1C[C@H](C)[C@H](CN(C)S(=O)(=O)c2ccc(Cl)cc2)Oc2ccc(NC(=O)Nc3ccccc3)cc2CC1=O	2	.	-1
26	CO[C@H]1CN(C)C(=O)c2ccc(NC(=O)NC(C)C)cc2OC[C@@H](C)N(C)C[C@H]1C	0	.	.
27	CCNC(=O)C[C@H]1CC[C@H]2[C@@H](COC[C@H](O)CN2C(=O)Nc2c(C)noc2C)O1	-5	.	2
28	Cc1cc(C(=O)CSc2nnc(-c3ccccc3)n2C)c(C)n1C	3	-7	.
29	NC(=O)CSc1nc2ccccc2c(=O)n1Cc1ccco1	0	.	.
30	CCCn1c(C)cc(C(=O)CSc2nc3ccccc3c(=O)n2Cc2ccco2)c1C	-1	15	1

cpd	PDI inh	Yeast UUG start-1
16	.	2
17	4	.
18	-2	653*
19	-5	1
20	-13	-16
21	-1	-18
22	-10	-6
23	2	.
24	0	-5
25	.	29
26	.	.
27	.	-8
28	-1	-8
29	29	-13
30	-4	-21

Structures listed so far that contain a CF3 group:
cpd	compound	Cneo AK release	Yeast UUG start-2	ERp5 inh
5	O=C(Nc1ccc(C(F)(F)F)cc1)Nc1ccc2c(c1)[C@H]1C[C@H](CC(=O)N3CCc4ccccc4C3)O[C@@H](CO)[C@H]1O2	0	.	3
13	C[C@H](CO)N1C[C@H](C)[C@H](CN(C)C(=O)Nc2ccc(C(F)(F)F)cc2)Oc2ccc(NS(C)(=O)=O)cc2C1=O	3	.	4

cpd	PDI inh	Yeast UUG start-1
5	.	.
13	.	-1

Later entries
cpd	compound	Cneo AK release	Yeast UUG start-2	ERp5 inh
31	CN1C(=O)c2cc(NC(=O)Cc3ccccc3)ccc2OC[C@H]2O[C@H](CC(=O)NCC3CC3)CC[C@H]21	-2	.	-5
32	CC(C)C#Cc1ccc2c(c1)O[C@@H](CN(C)Cc1cccnc1)[C@H](C)CN([C@@H](C)CO)S2(=O)=O	0	i	4
33	C[C@H]1CN([C@@H](C)CO)S(=O)(=O)c2ccc(C#CC3CCCC3)cc2O[C@H]1CN(C)Cc1cccnc1	13	i	-3
34	CC(C)C#Cc1ccc2c(c1)O[C@H](CN(C)Cc1cccnc1)[C@H](C)CN([C@@H](C)CO)S2(=O)=O	0	.	-11
35	COC(C#CCCN(C)C)(c1ccccc1)c1ccccc1	.	-3	.
36	Cc1ccc(S(=O)(=O)N(C)C[C@@H]2Oc3ncc(-c4ccncc4)cc3C(=O)N([C@@H](C)CO)C[C@H]2C)cc1	-6	i	22
37	Cc1ccc(S(=O)(=O)N(C)C[C@H]2Oc3ncc(Br)cc3C(=O)N([C@@H](C)CO)C[C@H]2C)cc1	39	i	5
38	COc1ccccc1S(=O)(=O)N1CC[C@H]2[C@H](CO)Nc3ccc(Br)cc3[C@H]21	-8	.	.
39	O=S(=O)(Nc1cccc(-c2cn3cccnc3n2)c1)c1ccc(-c2ccccc2)cc1	1	3	.
40	Cn1c(=O)[nH]c(=O)c2c1nc(Br)n2C/C=N/NC(=O)c1ccccc1	-3	0	0
41	CCC(=O)N1C[C@@H](O)COC[C@H]2O[C@@H](CC(=O)NCC3CCCCC3)CC[C@@H]21	-3	i	-3
42	CCC(=O)N1C[C@@H](O)COC[C@@H]2O[C@@H](CC(=O)NCC3CCCCC3)CC[C@H]21	-2	.	2
43	Cc1cccc(-c2ccc([C@@H]3[C@H]4CN(Cc5cncnc5)CCCCN4[C@H]3CO)cc2)c1	4	.	6
44	COc1ccccc1NC(=O)c1ccc(NS(=O)(=O)c2c(C)noc2C)cc1	-6	-4	.
45	COc1ccc(NC(=O)c2ccc(NS(=O)(=O)c3c(C)noc3C)cc2)cc1OC	-2	.	.
46	O=C(NC1CCOC1)c1ccc(OC2CCN(CCc3ccccc3)CC2)cc1 (stereo unspecified)	3	-2	-5

cpd	PDI inh	Yeast UUG start-1
31	.	8
32	.	72*
33	.	142*
34	.	-6
35	23	.
36	.	200*
37	.	108*
38	.	-11
39	2	545*
40	-1	136*
41	.	112*
42	.	-5
43	.	-11
44	-5	442*
45	2	1
46	2	503*
